{"source": "patent US10813788B2", "about": "“Implantable therapeutic device” (ForSight Vision4, Inc., priority 2009, dated 2020)", "key": {"[1]": {"details": "in water at 20 C, measured value of Molokhia et al, Exp Eye Res 2008, cited from earlier work"}, "[2]": {"test": "Release of BSA through sintered porous titanium cylinder, Example 5", "details": "titanium cylinder 0.062 x 0.039 in, 0.2 media grade; 300 mg/mL BSA, 100 uL, room temperature; fit to 180 days"}, "[3]": {"test": "Release of BSA through sintered porous stainless steel cylinder (media grade 0.2), Example 8", "details": "316L stainless steel cylinder 0.031 x 0.049 in, 0.2 media grade, 300 mg/mL BSA, 17 uL, 37° C."}, "[4]": {"test": "Diffusion coefficients in water (literature value and estimate by equation)", "assay_type": "physicochemical", "details": "37 C; estimated from the BSA value by MW and viscosity equation", "description": "If the reservoir solution is aqueous or has a viscosity similar to water, the value for the diffusion coefficient of the therapeutic agent (TA) in water at the temperature of interest may be used. […] (Molokhia et al, Exp Eye Res 2008): DTA,37C=DBSA,20C(η20C/η37C)(MWBSA/MWTA)^1/3 where MW refers to the molecular weight of either BSA or the test compound and η is the viscosity of water.\nSmall molecules have a diffusion coefficient similar to fluorescein (MW=330, D=4.8 to 6 e-6 cm^2/s from Stay, M S et al. Pharm Res 2003, 20(1), pp. 96-102). For example, the small molecule may comprise a glucocorticoid such as triamcinolone acetonide having a molecular weight of about 435."}, "[5]": {"details": "models of proteins of therapeutic interest; cited from earlier work"}}, "note": "Read-outs that look alike come from different tables or passages of the source.", "data": [{"substance": "bovine serum albumin [BSA]", "values": [{"measurement": "Diff Coeff", "setting": "[1]", "value": "6.1E−07", "unit": "cm^2/s"}, {"measurement": "Diff Coeff", "setting": "[1]; listed as bovine serum albumin", "value": "6.1 e-7 cm^2/s"}, {"measurement": "Release Rate Index", "setting": "[2]", "value": 0.21, "unit": "mm"}, {"measurement": "PA/FL ratio (Release Rate Index)", "setting": "[3]; FIG. 18A", "value": 0.0475, "unit": "mm"}, {"measurement": "PA/FL ratio (Release Rate Index)", "setting": "[3]; for 180 days, FIG. 18B", "value": 0.038, "unit": "mm"}, {"measurement": "Diff Coeff", "setting": "[4]", "value": "9.1E−07", "unit": "cm^2/s"}, {"measurement": "diameter", "setting": "[5]", "value": 7.2, "unit": "nm"}]}]}
